The series deals with L1210 cell line. Put plainly: In vitro cytotoxic activity, L1210. Format: cell-based.

Consider “(N-(Iso-quinolinyl-3-carbonyl)-D-Ser-Pip-Gly-Sar-NMe-Val)2 (Serine Hydroxyl) Dilactone [compound 21]”, for which the “cytotoxic potency, fold less potent than 4” value came out at 100 and the “cytotoxic potency, fold more effective than 10” value is recorded as 4000.
For the substance “(N-(Isoquinolinyl-1-carbonyl)-D-Ser-Pip-Gly-Sar-NMe-Val)2 (Serine Hydroxyl) Dilactone [compound 22]”, the “cytotoxic potency, fold less potent than 4” value amounted to 100 and the “cytotoxic potency, fold more effective than 10” value is 4000.
